Data: patent US20200369728A1, “PEPTIDOMIMETIC MACROCYCLES AND USES THEREOF” (Aileron Therapeutics, Inc., priority 2015, published 2020)

Test system: p21
Experiment: p21 ELISA assay in SJSA1 cells
Assay type: cell-based, human
Design: unit not given here

Structure (SMILES) | p21 0.3 μM | p21 1 μM | p21 3 μM | p21 10 μM | p21 30 μM
CC(=O)N[C@@H](C)C(=O)N[C@@H](CC(C)C)C(=O)N[C@H](C(=O)N[C@@H](Cc1ccccc1)C(=O)N[C@]1(C)CCCCCCC=CCCC[C@@](C)(C(=O)N[C@@H](CO)C(=O)N[C@@H](C)C(=O)N[C@@H](C)C(=O)N[C@@H](C)C(=O)N[C@H](C)C(N)=O)NC(=O)[C@H](CC2CCC2)NC(=O)[C@H](CCC(N)=O)NC(=O)[C@H](C)NC(=O)[C@H](Cc2c[nH]c3ccccc23)NC(=O)[C@H](Cc2ccc(O)cc2)NC(=O)[C@H](CCC(=O)O)NC1=O)[C@@H](C)O (single isomer, unassigned) [compound 357] | 539 | 777 | 1080 | 1362 | 1177
CCCC[C@H](NC(=O)[C@H](C)NC(=O)[C@H](C)NC(=O)[C@]1(C)CCC/C=C/CCCCCC[C@@](C)(NC(=O)[C@H](Cc2ccccc2)NC(=O)[C@@H](NC(=O)[C@H](CC(C)C)NC(C)=O)[C@@H](C)O)C(=O)N[C@@H](C)C(=O)N[C@@H](Cc2ccc(O)cc2)C(=O)N[C@@H](Cc2c[nH]c3ccccc23)C(=O)N[C@@H](C)C(=O)N[C@@H](CCC(N)=O)C(=O)N[C@@H](CC(C)C)C(=O)N1)C(=O)N[C@@H](C)C(N)=O [compound 69] | 272 | 458.72 | 1281.39 | 2138.88 | 1447.22
CC(=O)N[C@@H](CCC(=O)O)C(=O)N[C@H](C(=O)N[C@@H](Cc1ccccc1)C(=O)N[C@]1(C)CCCCCCC=CCCC[C@@](C)(C(=O)N[C@@H](C)C(=O)N[C@@H](C)C(=O)N[C@@H](C)C(=O)N[C@@H](C)C(=O)N[C@@H](C)C(=O)N[C@H](C)C(N)=O)NC(=O)[C@H](CC(C)C)NC(=O)[C@H](CCC(N)=O)NC(=O)[C@H](C)NC(=O)[C@H](Cc2c[nH]c3ccccc23)NC(=O)[C@H](Cc2ccc(O)cc2)NC(=O)[C@H](CCC(=O)O)NC1=O)[C@@H](C)O (single isomer, unassigned) [compound 341] | 1325.62 | 1873 | 2039.75 | 2360.75 | 2574
CC(=O)N[C@@H](CC(C)C)C(=O)N[C@H](C(=O)N[C@@H](Cc1ccccc1)C(=O)N[C@]1(C)CCCCCCC=CCCC[C@@](C)(C(=O)N[C@@H](CO)C(=O)N[C@@H](C)C(=O)N[C@@H](CC(C)C)C(N)=O)NC(=O)[C@H](CC(C)C)NC(=O)[C@H](CCC(N)=O)NC(=O)[C@H](C)NC(=O)[C@H](Cc2c[nH]c3ccccc23)NC(=O)[C@H](Cc2ccc(O)cc2)NC(=O)[C@H](C)NC1=O)[C@@H](C)O [compound 4] |  |  | 317 | 3049 | 3257
CC(=O)N[C@@H](CC(C)C)C(=O)N[C@H](C(=O)N[C@@H](Cc1ccccc1)C(=O)N[C@]1(C)CCCCCCC=CCCC[C@@](C)(C(=O)N[C@@H](CO)C(=O)N[C@@H](C)C(=O)N[C@@H](C)C(N)=O)NC(=O)[C@H](CC2CCC2)NC(=O)[C@H](CCC(N)=O)NC(=O)[C@H](C)NC(=O)[C@H](Cc2ccc3ccccc3c2)NC(=O)[C@H](Cc2ccc(O)cc2)NC(=O)[C@H](CCC(=O)O)NC1=O)[C@@H](C)O [compound 254] | 118 | 896 | 1774 | 3042 | 3035
CC(=O)N[C@@H](C)C(=O)N[C@@H](CC(C)C)C(=O)N[C@H](C(=O)N[C@@H](Cc1ccccc1)C(=O)N[C@]1(C)CCCCCCC=CCCC[C@@](C)(C(=O)N[C@@H](CO)C(=O)N[C@@H](C)C(=O)N[C@@H](C)C(=O)N[C@H](C)C(N)=O)NC(=O)[C@H](CC2CCC2)NC(=O)[C@H](CCC(N)=O)NC(=O)[C@H](C)NC(=O)[C@H](Cc2c[nH]c3ccccc23)NC(=O)[C@H](Cc2ccc(O)cc2)NC(=O)[C@H](CCC(=O)O)NC1=O)[C@@H](C)O (single isomer, unassigned) [compound 355] | 191 | 688 | 1122 | 1223 | 1519
CC(=O)N[C@@H](CC(C)C)C(=O)N[C@H](C(=O)N[C@@H](Cc1ccccc1)C(=O)N[C@]1(C)CCCCCCC=CCCC[C@@](C)(C(=O)N[C@@H](C)C(=O)N[C@@H](C)C(=O)N[C@@H](C)C(=O)N[C@@H](C)C(=O)N[C@@H](C)C(=O)N[C@@H](C)C(=O)N[C@H](C)C(N)=O)NC(=O)[C@H](CC(C)C)NC(=O)[C@H](CCC(N)=O)NC(=O)[C@H](C)NC(=O)[C@H](Cc2c[nH]c3ccccc23)NC(=O)[C@H](Cc2ccc(O)cc2)NC(=O)[C@H](C)NC1=O)[C@@H](C)O (single isomer, unassigned) [compound 317] | 551 | 624 | 776 | 1367 | 1076
CC(=O)N[C@@H](CC(C)C)C(=O)N[C@H](C(=O)N[C@@H](Cc1ccccc1)C(=O)N[C@]1(C)CCCCCCC=CCCC[C@@](C)(C(=O)N[C@@H](C)C(=O)N[C@@H](C)C(=O)N[C@@H](C)C(=O)N[C@H](C)C(N)=O)NC(=O)[C@H](CC(C)C)NC(=O)[C@H](CCC(N)=O)NC(=O)[C@H](C)NC(=O)[C@H](Cc2c[nH]c3ccccc23)NC(=O)[C@H](Cc2ccc(O)cc2)NC(=O)[C@H](C)NC1=O)[C@@H](C)O (single isomer, unassigned) [compound 230] | 245.5 | 392 | 882 | 1549 | 2086
CC(=O)N[C@@H](CC(C)C)C(=O)N[C@H](C(=O)N[C@@H](Cc1ccccc1)C(=O)N[C@]1(C)CCCCCCC=CCCC[C@@](C)(C(=O)N[C@@H](C)C(=O)N[C@H](C(=O)NCC(N)=O)C(C)C)NC(=O)[C@H](CC(C)C)NC(=O)[C@H](CCC(N)=O)NC(=O)[C@H](C)NC(=O)[C@H](Cc2c[nH]c3ccccc23)NC(=O)[C@H](Cc2ccc(O)cc2)NC(=O)[C@H](C)NC1=O)[C@@H](C)O (single isomer, unassigned) [compound 109] |  | 161 | 445 | 1221 | 1680
CC(=O)N[C@@H](C)C(=O)N[C@@H](C)C(=O)N[C@@H](CC(C)C)C(=O)N[C@H](C(=O)N[C@@H](Cc1ccccc1)C(=O)N[C@]1(C)CCCCCCC=CCCC[C@@](C)(C(=O)N[C@@H](CO)C(=O)N[C@@H](C)C(=O)N[C@@H](C)C(=O)N[C@@H](C)C(=O)N[C@H](C)C(N)=O)NC(=O)[C@H](CC2CCC2)NC(=O)[C@H](CCC(N)=O)NC(=O)[C@H](C)NC(=O)[C@H](Cc2c[nH]c3ccccc23)NC(=O)[C@H](Cc2ccc(O)cc2)NC(=O)[C@H](CCC(=O)O)NC1=O)[C@@H](C)O (single isomer, unassigned) [compound 359] | 1163.29 | 1508.79 | 1780.29 | 2067.67 | 2479.29
CC(=O)N[C@@H](C)C(=O)N[C@@H](C)C(=O)N[C@@H](CC(C)C)C(=O)N[C@H](C(=O)N[C@@H](Cc1ccccc1)C(=O)N[C@]1(C)CCCCCCC=CCCC[C@@](C)(C(=O)N[C@@H](CO)C(=O)N[C@@H](C)C(=O)N[C@@H](C)C(=O)N[C@@H](C)C(=O)N[C@H](C)C(N)=O)NC(=O)[C@H](CC2CCC2)NC(=O)[C@H](CCC(N)=O)NC(=O)[C@H](C)NC(=O)[C@H](Cc2c[nH]c3ccccc23)NC(=O)[C@H](Cc2ccc(O)cc2)NC(=O)[C@H](CCC(=O)O)NC1=O)[C@@H](C)O (single isomer, unassigned) [compound 358] | 252 | 321 | 434 | 609 | 1192
